The record followed here is US20110195433A1 (priority 2007, published 2011).

Protein sequences, listed by entry. Tags and fused reporters are not part of them. Lines headed by an entry give the natural chain unless they say otherwise; changes in a name come on top.
UniProt P35372: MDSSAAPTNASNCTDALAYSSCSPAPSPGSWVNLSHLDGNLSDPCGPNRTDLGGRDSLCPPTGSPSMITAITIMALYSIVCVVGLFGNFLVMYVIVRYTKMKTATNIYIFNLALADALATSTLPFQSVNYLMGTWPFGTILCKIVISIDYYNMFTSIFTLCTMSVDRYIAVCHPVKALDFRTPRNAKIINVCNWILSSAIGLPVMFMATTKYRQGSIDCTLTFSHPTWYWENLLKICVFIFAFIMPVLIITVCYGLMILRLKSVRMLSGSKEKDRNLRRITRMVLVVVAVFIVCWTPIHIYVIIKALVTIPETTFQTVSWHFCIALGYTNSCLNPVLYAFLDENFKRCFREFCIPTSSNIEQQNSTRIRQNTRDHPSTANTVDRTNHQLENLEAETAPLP
UniProt P32300: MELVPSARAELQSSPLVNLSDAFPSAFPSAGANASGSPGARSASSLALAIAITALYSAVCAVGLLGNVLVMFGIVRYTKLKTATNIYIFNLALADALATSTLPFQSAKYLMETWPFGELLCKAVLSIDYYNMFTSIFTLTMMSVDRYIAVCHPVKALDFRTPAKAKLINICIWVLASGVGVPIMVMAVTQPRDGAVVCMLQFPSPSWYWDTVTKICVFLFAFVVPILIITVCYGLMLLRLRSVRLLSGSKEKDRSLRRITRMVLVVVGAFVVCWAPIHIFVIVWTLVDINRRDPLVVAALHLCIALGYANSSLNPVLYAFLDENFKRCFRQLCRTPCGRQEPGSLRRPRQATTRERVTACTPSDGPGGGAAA
UniProt P41145: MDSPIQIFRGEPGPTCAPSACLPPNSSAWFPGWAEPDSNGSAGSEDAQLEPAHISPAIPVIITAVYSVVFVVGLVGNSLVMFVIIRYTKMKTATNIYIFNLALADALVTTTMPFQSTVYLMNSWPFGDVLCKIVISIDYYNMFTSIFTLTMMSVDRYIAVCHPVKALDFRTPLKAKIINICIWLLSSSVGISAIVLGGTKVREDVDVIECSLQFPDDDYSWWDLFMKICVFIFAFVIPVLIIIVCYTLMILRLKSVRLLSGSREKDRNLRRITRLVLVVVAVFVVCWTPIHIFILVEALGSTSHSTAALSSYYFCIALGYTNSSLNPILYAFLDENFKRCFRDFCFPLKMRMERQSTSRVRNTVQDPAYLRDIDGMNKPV

Where two headings read alike, the source gives them in different places.

Data set [1] addresses T1, human MOR (Homo sapiens, UniProt P35372). In words: [[…] binding (saturation and competitive) in MOR membranes.
The target in data set [2] is T2, mouse DOR (Mus musculus, UniProt P32300). In words: [[…] binding (saturation and competitive) in DOR membranes.
For data set [3], the target named is T3, human KOR (Homo sapiens, UniProt P41145). In words: [[…] binding (saturation and competitive) in KOR membranes.
Data set [4] addresses T2, mouse DOR. In words: basal [35S]GTPγS binding in DOR cell membranes with or without agonist pretreatment. Format: biochemical. The settings on record: DPDPE-pretreated DOR membranes.
For data set [5], the target named is T1, human MOR. The conditions noted are these: for effect on basal [35S]GTPγS binding: DAMGO- or morphine-pretreated MOR membranes. On the technique in general: GTPγS is a poorly hydrolysed GTP analogue; its binding reports G protein activation.
Data set [6] concerns the target T3, human KOR.
Data set [7] relates to opioid pretreated animals. In words: diarrhea in opioid pretreated animals.
Data set [8] concerns the target T1, human MOR. In words: agonist-stimulated [35S]GTPγS binding in MOR membranes. The conditions noted are these: 1 μM DAMGO.
Data set [9] has as its target T2, mouse DOR. In words: agonist-stimulated [35S]GTPγS binding in DOR membranes. The settings on record: 30 nM DPDPE.
Data set [10] concerns the target T3, human KOR. In words: agonist-stimulated [35S]GTPγS binding in KOR membranes. The conditions noted are these: 300 nM U50,488H.
The mark [11] stands for this setting: morphine-pretreated KOR membranes.

Take 6β-naltrexamide: in data set [1], the “binding affinity, fold higher (more potent) than naloxone” value stood at 3 fold. Also, the “binding affinity, fold less potent than naltrexone” value in data set [1] worked out at 4 fold. Also, the “binding affinity, fold less potent than naloxone” value in data set [2] is on record as 7- to 10 fold; in data set [3], 2- to 7 fold. Moreover, the “inhibition of the inverse agonist effect of naloxone” value in [4], in data set [5] (DAMGO (agonist)-pretreated MOR membranes) and in [6] (setting [11]) was “inhibited” throughout. Also, the “effect on basal [35S]GTPγS binding” value in [5] was “did not decrease”; in data set [5] (listed as 6β-nalrexamide) it was “no inverse agonist effects”; in data set [6] (setting [11]), “no inverse agonist effects”. Also, the entries for the “pharmacological property at KOR” value in data set [6] (U69593 pretreated membranes) and in data set [6] (after agonist pretreatment) were “remains neutral” and “remained neutral regardless of agonist pretreatment”, respectively. Also, in [6] (U-69593-pretreated KOR membranes), the “inhibition of the inverse agonist effect of 6β-naltrexol” value was “inhibited”. The diarrhea result in data set [7] is “less diarrhea”. In addition, the “antagonistic property against agonist-stimulated [35S]GTPγS binding” value in [8], in [9] and in data set [10] was “full antagonists” each time.
